Measurements from PMC6520365, “Structural and functional characterization of the PDZ domain of the human phosphatase PTPN3 and its interaction with the human papillomavirus E6 oncoprotein” (Scientific Reports, 2019).

Protein sequences, listed by entry. Tags and fused reporters are not part of them. Residues count along the entry.
UniProt P26045, 489-913: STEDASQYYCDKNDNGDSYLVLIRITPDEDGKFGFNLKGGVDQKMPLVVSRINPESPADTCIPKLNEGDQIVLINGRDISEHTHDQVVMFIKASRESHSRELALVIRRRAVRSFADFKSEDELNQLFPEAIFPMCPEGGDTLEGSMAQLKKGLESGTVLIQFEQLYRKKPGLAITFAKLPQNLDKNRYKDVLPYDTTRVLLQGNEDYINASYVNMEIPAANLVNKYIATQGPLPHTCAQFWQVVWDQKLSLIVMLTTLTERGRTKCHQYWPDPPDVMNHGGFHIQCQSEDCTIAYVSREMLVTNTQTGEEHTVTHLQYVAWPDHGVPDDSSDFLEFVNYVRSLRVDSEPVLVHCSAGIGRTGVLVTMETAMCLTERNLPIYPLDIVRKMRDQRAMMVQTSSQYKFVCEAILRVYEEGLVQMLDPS

Molecular target: PTPN3-PDZ_(Next), PDZ domain of human PTPN3 extended at the N-terminus by 15 residues of its wild-type upstream sequence (human) (UniProt P26045)
Assay: AUC; sedimentation velocity, PTPN3-PDZ_(Next) at 70 μM with PBM peptide, 20 °C, 42000 rpm

## HPV18E6 PBM peptide (C-terminal sequence of the human papillomavirus type 18 E6 protein)
  stoichiometry N: 1
